Measured values taken from patent US8391959B2, “Composition for improving efficiency of drug delivery” (Tel HaShomer Medical Research Infrastructure and Services …, priority 2004, dated 2013).

System: striatum of normal Sprague-Dawley (SD) rats
Assay: Cytotoxic tissue response after CED in rat striatum, T2-weighted and diffusion-weighted MRI 24 hours post treatment
Details: efficient prolonged (90 minutes) CED, at the site of the catheter tip
Experimental: The resultant solution was infused into the striatum of normal Sprague-Dawley (SD) rats (males, 250-300 grams). T1-weighted MR images were acquired immediately post treatment to assess the extent of convection. Additionally, T2-weighted and diffusion-weighted MR images were acquired 24 hours post treatment to assess the response of the tissue and its correlation to the extent of convection.
In order to obtain a wide range in volumes of distribution, the infusion times were varied between 17 to 60 minutes. 13 rats were treated with Carboplatin (4 mg/ml, 17 minutes infusion). In order to obtain a wide range in volumes of distributions, in 6 out of those, the composition viscosity was increased by adding sucrose to the solution prior to infusion (Carboplatin 4 mg/ml, sucrose concentration-12%).
Early assessment of tissue response was performed using diffusion-weighted and T2-weighted MR images. The diffusion-weighted images were obtained by acquiring conventional T2-weighted images with the addition of diffusion-weighting gradients that filter out the signal from high mobility water molecules and sensitize the MR images to molecular diffusion/mobility [Stejskal et al. supra]. […]

## human serum albumin: non-toxic infusate (human serum albumin solutions 0.2%, 1.0% and 2.5%)
  enhancement on T2-weighted and diffusion-weighted MR images: minor enhancement
